How the values were obtained:
[1] = target: fXI with Lys^83 and Gln^84 replaced with alanine (UniProt P03951)
[2] = target: fXI with Lys^83 and Gln^84 replaced with alanine (UniProt P03951); experiment: cell-based or functional assay

Substance	rate of activation in solution relative to fXI^WT [1]	thrombin generation (AUC) in fXI-deficient plasma initiated with α-thrombin [2]
α-thrombin	about 10% of the rate for fXI^WT	
α-thrombin (from UniProt P00734 328-622) (enzyme)		111 nM

— patent US20110250207A1 (OREGON HEALTH AND SCIENCE UNIVERSITY, published 2011)
